Assay results reported in patent US20130084640A1, “ANIMAL CELL CULTURE MEDIA COMPRISING NON ANIMAL OR PLANT DERIVED NUTRIENTS” (LIFE TECHNOLOGIES CORPORATION, priority 1999, published 2013).

System: VERO cells
Assay: VERO cell growth in basal medium with non-animal supplements (mean cell count over subcultures, RGE)
Format: cell-based
Details: Table 2
Procedure: No attachment factors or coating of the plastic surface are required for the culture of VERO cells. At 3 to 4 days the cells were removed using standard cell culture techniques. The surface of the culture was first washed with Dulbecco's Phosphate Buffered Saline (DPBS) and then 1.0 ml Trypsin-EDTA (Life Technologies, Inc., Rockville, Md.) was added. The digest was allowed to sit on the cell surface for 3 to 5 minutes or until the cells rounded up and began to detach from the surface of the flask. The cells were completely detached by vigorous agitation against the palm of the hand and then 1.5 ml of soybean trypsin inhibitor was added to quickly neutralize enzymatic activity. The cells were counted under the microscope using trypan blue straining solution and new cultures plated at 2.5×10^3 cells per 25 cm^2 flask. Incubation was at 37° C. in 5% CO^2 in air. The cultures were passaged for a total of 4 subcultures and the mean cells per subculture determined from the counts of the final 3 subcultures (P2+P3+P4[…]). Initial studies were designed to formulate a culture medium completely devoid of animal proteins that supports the culture of animal cells. […] RGE was calculated as described in Example 2. […] RGE was calculated as described in Example 2. […] RGE was calculated as described in Example 2.

Substance: HSA: human serum albumin, positive control supplement at 500 mg/liter [reference compound]
- RGE (relative growth efficiency) (500 mg/liter HSA, the reference control itself): 100
- Mean Cell Count (basal medium + 500 mg/liter HSA (positive control), per 25 cm^2 flask, mean over 3 subcultures): 44.9 × 10^5
